Test results as given in patent US10071957B2, “N-substituted benzamides and methods of use thereof” (GENENTECH, INC., priority 2012, dated 2018).

Chains of the proteins cited; added tags and fusions are not shown.
UniProt Q15858, whole entry, looked up: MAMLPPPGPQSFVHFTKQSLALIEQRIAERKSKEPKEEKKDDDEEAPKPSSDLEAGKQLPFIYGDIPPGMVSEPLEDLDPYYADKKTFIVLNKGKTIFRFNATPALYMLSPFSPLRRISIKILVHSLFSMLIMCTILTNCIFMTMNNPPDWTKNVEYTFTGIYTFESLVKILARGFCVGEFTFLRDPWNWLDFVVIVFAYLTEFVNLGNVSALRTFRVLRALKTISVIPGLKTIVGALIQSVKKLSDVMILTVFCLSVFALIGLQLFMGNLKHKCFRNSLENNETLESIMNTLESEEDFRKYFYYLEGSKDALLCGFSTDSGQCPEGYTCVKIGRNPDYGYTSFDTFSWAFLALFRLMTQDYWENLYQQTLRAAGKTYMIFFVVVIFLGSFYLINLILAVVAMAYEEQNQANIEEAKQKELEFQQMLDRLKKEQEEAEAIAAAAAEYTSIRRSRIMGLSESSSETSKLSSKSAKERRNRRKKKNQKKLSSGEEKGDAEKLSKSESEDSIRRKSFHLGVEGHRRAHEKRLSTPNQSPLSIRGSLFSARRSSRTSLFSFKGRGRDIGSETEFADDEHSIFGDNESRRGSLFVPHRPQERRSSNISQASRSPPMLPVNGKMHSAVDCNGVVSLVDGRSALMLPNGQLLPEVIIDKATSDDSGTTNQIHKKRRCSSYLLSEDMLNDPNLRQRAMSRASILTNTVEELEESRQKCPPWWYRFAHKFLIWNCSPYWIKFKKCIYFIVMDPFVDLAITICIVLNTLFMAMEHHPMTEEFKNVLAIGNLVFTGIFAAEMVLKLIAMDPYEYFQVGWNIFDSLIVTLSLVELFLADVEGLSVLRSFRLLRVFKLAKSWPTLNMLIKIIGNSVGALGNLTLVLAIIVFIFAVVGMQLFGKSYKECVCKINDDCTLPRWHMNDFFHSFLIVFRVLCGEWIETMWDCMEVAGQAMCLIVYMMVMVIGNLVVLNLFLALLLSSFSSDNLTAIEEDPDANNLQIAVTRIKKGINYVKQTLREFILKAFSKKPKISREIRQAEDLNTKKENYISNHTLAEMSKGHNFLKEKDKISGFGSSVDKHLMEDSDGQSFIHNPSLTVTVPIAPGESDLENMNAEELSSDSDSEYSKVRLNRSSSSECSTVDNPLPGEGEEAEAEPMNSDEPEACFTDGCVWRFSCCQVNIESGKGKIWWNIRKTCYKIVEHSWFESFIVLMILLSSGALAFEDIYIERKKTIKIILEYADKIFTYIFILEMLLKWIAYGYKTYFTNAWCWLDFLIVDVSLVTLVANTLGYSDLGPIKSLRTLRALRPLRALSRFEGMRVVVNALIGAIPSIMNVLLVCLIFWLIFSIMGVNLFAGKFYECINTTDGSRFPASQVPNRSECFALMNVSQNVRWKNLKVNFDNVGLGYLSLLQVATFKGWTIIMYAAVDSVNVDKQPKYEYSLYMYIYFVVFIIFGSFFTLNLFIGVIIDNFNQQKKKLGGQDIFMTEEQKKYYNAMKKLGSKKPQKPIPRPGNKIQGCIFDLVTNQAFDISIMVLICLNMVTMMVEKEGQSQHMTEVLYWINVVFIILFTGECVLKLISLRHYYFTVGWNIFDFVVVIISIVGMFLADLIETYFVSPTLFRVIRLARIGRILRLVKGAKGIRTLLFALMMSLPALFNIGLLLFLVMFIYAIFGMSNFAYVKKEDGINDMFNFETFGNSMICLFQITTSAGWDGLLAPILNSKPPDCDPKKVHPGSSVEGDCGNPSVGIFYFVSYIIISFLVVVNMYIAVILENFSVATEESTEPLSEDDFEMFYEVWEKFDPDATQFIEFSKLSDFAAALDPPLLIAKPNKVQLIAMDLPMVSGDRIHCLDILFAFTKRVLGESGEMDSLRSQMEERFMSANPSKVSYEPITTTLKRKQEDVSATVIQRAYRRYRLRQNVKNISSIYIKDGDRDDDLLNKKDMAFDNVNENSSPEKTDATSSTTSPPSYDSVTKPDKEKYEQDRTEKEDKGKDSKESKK

Tests used:
hNaV1.7 [1] = molecular target: T1, hNaV1.7 (Homo sapiens (Human), UniProt Q15858); test: Patch voltage clamp electrophysiology, inactivated state block of NaV1.7 in HEK-293 cells; assay type: cell-based; settings: HEK cells with β1 subunit, read-out: hNaV 1.7 IC50
Description: Patch voltage clamp electrophysiology allows for the direct measurement and quantification of block of voltage-gated sodium channels (NaV's), and allows the determination of the time- and voltage-dependence of block which has been interpreted as differential binding to the resting, open, and inactivated states of the sodium channel (Hille, B., Journal of General Physiology (1977), 69: 497-515).
The following patch voltage clamp electrophysiology studies were performed on representative compounds of the invention using human embryonic kidney cells (HEK), permanently transfected with an expression vector containing the full-length cDNA coding for the desired human sodium channel α-subunit, grown in culture media containing 10% FBS, 1% PSG, and 0.5 mg/mL G418 at 37° C. with 5% CO2. […] NaV1.7 and NaV1.5 cDNAs (NM_002977 and AC137587; SCN5A, respectively) were stably expressed in HEK-293 cells. The β1 subunit was coexpressed in both the NaV1.7 and NaV1.5 cell lines.
Sodium currents were measured using the patch clamp technique in the whole-cell configuration using either a PatchXpress automated voltage clamp or manually using an Axopatch 200B (Axon Instruments) or Model 2400 (A-M systems) amplifier. The manual voltage clamp protocol was as follows:
Borosilicate glass micropipettes were fire-polished to a tip diameter yielding a resistance of 2-4 Mohms in the working solutions. The pipette was filled with a solution comprised of: 5 mM NaCl, 10 mM CsCl, 120 mM CsF, 0.1 mM CaCl2, 2 mM MgCl2, 10 mM HEPES, 10 mM EGTA; and adjusted to pH 7.2 with CsOH. […] Control sodium currents were measured in 0.5% DMSO. […]
Currents were recorded at 40 kHz sampling frequency, filtered at […], and stored using a Digidata-1322A analogue/digital interface with the pClamp software (Axon Instruments). […]
The membrane potential was maintained at a voltage where inactivation of the channel is complete (which was −60 mV for both NaV1.7 and NaV1.5). The voltage is then stepped back to a very negative (Vhold=[…]) voltage for 20 ms and then a test pulse is applied to quantify the compound block. […]

hNaV1.7 [2] = molecular target: T1, hNaV1.7; test: Competitive binding of tritiated compound to membranes from cells expressing hNav1.7 and the β1 subunit; settings: 100 pM [3H]compound, 18 h, room temperature; read-out: NaV1.7 395 Membrane Binding IC50
Description: Tritiated compound binding to membranes isolated from cells that heterologously express hNav1.7 and the β1 subunit
Preparation of membranes containing recombinantly expressed sodium channels: Frozen recombinant cell pellets were thawed on ice and diluted to 4 times the cell pellet weight with ice cold 50 mM Tris HCl, pH 7.4 buffer. The cell suspensions were homogenized on ice using a motorized glass dounce homogeniser. Homogenates were further diluted 8.4 times with ice cold 50 mM Tris HCl, pH 7.4 buffer and then centrifuged at 200×g at 4° C. for 15 min. The supernatants were collected and centrifuged at 10000×g at 4° C. for 50 min. The pellets were then re-suspended in 100 mM NaCl, 20 mM Tris HCl, pH 7.4 buffer containing 1% v/v protease inhibitors (Calbiochem) and re-homogenized on ice. The homogenized membranes were then processed through a syringe equipped with a 26 gauge needle. Protein concentrations were determined by Bradford Assay and the membranes were stored at −80° C.
Radioligand Binding Studies: Saturation experiments. A representative compound of formula (I) was tritiated. Three tritiums were incorporated in place of methyl hydrogens to generate [^3H]compound. Binding of this radioligand was performed in 5 mL borosilicate glass test tubes at room temperature. Binding was initiated by adding membranes to increasing concentrations of [^3H]compound in 100 mM NaCl, 20 mM Tris HCl, pH 7.4 buffer containing 0.01% w/v bovine serum albumin (BSA) for 18 h. Non-specific binding was determined in the presence of 1 μM unlabelled compound. After 18 h, the reactants were filtered through GF/C glass fiber filters presoaked in 0.5% w/v polyethylene imine. […] [^3H]compound bound to filters was quantified by liquid scintillation counting.
Competitive binding experiments. […] Bound radioactivity was determined by liquid scintillation counting.
Data Analysis: For saturation experiments, non-specific binding was subtracted from total binding to provide specific binding and these values were recalculated in terms of pmol ligand bound per mg protein. Saturation curves were constructed and dissociation constants were calculated using the single site ligand binding model: Beq=(Bmax*X)/(X+Kd), where Beq is the amount of ligand bound at equilibrium, Bmax is the maximum receptor density, Kd is the dissociation constant for the ligand, and X is the free ligand concentration. For competition studies percent inhibition was determined and IC50 values were calculated using a 4 parameter logistic model (% inhibition=(A+((B−A)/(1+((x/C)^D)))) using XLfit, where A and B are the maximal and minimum inhibition respectively, C is the IC50 concentration and D is the (Hill) slope.

## CN(C)S(=O)(=O)NC(=O)c1ccc(COc2ccc(Cl)c(Cl)c2)cc1 [Preparation 2, 4-((3,4-dichloro-phenoxy)methyl)-N-(N,N-dimethyl-sulfamoyl)benzamide]
hNaV1.7 [1]
  IC50: 0.142 µM
hNaV1.7 [2]
  IC50: 1.56 µM

## O=C(NS(=O)(=O)N1CCC1)c1cc(Cl)c(Oc2ccc(Cl)c(C(F)(F)F)c2)cc1F [Preparation 9, N-(azetidin-1-ylsulfonyl)-5-chloro-4-(4-chloro-3-(trifluoromethyl)phenoxy)-2-fluorobenzamide]
hNaV1.7 [1]
  IC50: 0.016 µM
hNaV1.7 [2]
  IC50: 0.0807 µM

## CC(C)COc1ncc(Oc2cc(F)c(C(=O)NS(=O)(=O)NCc3ccccn3)cc2Cl)cc1Cl [Preparation 20, 5-chloro-4-((5-chloro-6-isobutoxypyridin-3-yl)oxy)-2-fluoro-N-(N-(pyridin-2-ylmethyl)sulfamoyl) benzamide 2,2,2-trifluoroacetate]
hNaV1.7 [1]
  IC50: 2.34 µM
hNaV1.7 [2]
  IC50: 4.25 µM

## CN(C)S(=O)(=O)NC(=O)c1cc(Cl)c(OCCOc2ccccc2)cc1F [Preparation 51, 5-chloro-N-(N,N-dimethylsulfamoyl)-2-fluoro-4-(2-phenoxy-ethoxy)benzamide]
hNaV1.7 [2]
  IC50: 6.62 µM
